The results in this text go back to patent US5069909A, “Transdermal administration of buprenorphine” (Cygnus Therapeutic Systems, priority 1990, dated 1991).

The structures appear in SMILES notation.

The conditions of the data set: flow-through cells.

On to `CCCCCCCCCC(=O)O`, for which the “skin flux from saturated solutions, comparison (in words)” value is reported as “better penetration enhancer than lauric acid”.
